Amino acid sequences for entries named in this document (tags omitted). Residues count along the entry.
UniProt P13612, 34-1032 limits assumed: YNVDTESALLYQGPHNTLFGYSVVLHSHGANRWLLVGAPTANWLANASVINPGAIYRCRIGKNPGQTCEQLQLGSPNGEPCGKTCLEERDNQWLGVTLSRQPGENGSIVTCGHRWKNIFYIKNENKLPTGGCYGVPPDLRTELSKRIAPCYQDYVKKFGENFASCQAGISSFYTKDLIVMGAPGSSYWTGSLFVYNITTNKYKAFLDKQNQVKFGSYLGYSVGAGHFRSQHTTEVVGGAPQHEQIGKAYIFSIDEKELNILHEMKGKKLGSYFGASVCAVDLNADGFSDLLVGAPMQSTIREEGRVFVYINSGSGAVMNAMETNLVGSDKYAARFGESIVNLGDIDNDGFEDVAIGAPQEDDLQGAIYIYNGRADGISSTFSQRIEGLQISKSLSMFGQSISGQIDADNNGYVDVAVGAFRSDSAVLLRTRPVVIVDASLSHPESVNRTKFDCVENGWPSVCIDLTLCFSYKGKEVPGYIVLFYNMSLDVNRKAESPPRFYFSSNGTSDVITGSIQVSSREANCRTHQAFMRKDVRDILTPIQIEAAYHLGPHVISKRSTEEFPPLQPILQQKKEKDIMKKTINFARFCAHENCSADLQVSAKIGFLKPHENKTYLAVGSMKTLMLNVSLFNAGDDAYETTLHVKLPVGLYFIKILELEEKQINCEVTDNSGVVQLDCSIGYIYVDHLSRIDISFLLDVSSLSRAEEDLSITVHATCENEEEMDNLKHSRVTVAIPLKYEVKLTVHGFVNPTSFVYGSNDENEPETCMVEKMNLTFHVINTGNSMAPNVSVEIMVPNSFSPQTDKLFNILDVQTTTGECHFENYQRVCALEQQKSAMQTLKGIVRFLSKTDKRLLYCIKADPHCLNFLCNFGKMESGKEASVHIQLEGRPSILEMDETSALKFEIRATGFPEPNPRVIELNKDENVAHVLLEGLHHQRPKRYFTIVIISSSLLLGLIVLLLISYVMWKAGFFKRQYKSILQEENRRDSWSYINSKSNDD
UniProt P26010, 20-798 limits assumed: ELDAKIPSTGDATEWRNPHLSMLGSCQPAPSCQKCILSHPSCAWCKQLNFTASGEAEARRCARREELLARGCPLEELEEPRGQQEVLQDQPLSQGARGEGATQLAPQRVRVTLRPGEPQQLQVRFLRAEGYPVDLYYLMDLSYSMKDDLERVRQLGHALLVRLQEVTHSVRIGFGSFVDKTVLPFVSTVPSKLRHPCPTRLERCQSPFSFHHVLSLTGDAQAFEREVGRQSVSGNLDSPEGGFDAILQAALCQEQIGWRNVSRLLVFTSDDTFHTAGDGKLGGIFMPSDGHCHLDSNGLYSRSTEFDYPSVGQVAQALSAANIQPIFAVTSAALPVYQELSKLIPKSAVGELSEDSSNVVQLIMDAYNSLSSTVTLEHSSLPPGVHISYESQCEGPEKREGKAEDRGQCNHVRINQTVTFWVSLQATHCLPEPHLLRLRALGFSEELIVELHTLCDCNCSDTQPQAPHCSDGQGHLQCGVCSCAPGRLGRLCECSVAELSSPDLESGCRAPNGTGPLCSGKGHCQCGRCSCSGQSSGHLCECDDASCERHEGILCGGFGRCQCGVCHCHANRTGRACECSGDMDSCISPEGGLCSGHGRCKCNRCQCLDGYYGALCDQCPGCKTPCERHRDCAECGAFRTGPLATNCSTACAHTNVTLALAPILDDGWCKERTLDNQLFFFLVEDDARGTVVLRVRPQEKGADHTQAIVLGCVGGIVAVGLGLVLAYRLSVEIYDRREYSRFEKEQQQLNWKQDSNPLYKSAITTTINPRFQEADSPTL
UniProt P05556, 21-798 limits assumed: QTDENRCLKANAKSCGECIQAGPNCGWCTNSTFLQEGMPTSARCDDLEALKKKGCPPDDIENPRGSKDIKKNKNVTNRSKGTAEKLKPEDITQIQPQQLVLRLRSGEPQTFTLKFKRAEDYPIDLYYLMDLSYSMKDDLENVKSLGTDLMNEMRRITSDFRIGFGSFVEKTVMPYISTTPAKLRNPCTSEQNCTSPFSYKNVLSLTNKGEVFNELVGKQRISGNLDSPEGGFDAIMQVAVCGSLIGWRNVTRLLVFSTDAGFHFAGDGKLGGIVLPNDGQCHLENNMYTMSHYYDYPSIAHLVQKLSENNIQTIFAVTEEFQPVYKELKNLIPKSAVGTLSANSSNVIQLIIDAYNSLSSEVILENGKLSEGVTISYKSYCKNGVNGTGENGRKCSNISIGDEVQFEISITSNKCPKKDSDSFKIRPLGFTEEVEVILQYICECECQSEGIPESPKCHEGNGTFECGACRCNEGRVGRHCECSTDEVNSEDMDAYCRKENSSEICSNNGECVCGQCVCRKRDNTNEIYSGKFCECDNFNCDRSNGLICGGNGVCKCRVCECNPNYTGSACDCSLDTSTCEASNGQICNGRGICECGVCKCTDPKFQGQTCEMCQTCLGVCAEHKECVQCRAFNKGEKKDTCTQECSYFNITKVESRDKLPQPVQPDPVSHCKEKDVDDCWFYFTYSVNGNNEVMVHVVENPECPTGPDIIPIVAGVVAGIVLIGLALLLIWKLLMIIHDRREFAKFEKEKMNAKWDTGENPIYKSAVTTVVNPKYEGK

In patent US11578069B2, “Compounds for inhibition of α4 β7 integrin” (Gilead Sciences, Inc., priority 2019, dated 2023):

Tests used:
[1] = target: α4β7 integrin (Homo sapiens, UniProt P13612+P26010); test: α4β7 Integrin Cell Capture Assay; details: read-out: α4β7 EC50; capture of α4β7 integrin expressing RPM18866 cells on MadCAM-1 extracellular domain-coated plate; Table 2
Experimental: The potency of inhibitors in preventing α4β7 integrin interaction with MadCAM-1 was measured by monitoring the capture of α4β7 integrin expressing cells on a recombinant MadCAM-1 extracellular domain-coated plate.
384-well plates (Corning 3702) were coated with MadCAM-1 extracellular domain by dispensing 20 μL of MAdCAM-1 at 1.0 μg/mL per well and incubating overnight at 4° C. The plates were then washed with PBS and blocked with 3% BSA for 2 hours before being washed again.
(§1) RPM18866 cells were spun down and re-suspended in assay medium (DMEM+0.5% FBS+0.5 mM MnCl2) at a density of 0.5×10^6 cells/mL. The cells were then dispensed (60 μL/well) to a 384-well plate (Greiner 781280) that was previously spotted with 60 nL of test compound per well. The plates were incubated at 37° C. for 1 hour. 50 μL of cells were transferred to the blocked, MadCAM-1-coated plates and incubated for 30 minutes at 37° C. 10 μL of 12% glutaraldehyde containing Hoechst 33342 (0.06 mg/mL) was added to the cells (2% glutaraldehyde and 0.01 mg/mL final concentrations). The plates were incubated for 90 minutes at room temperature. The plates were then washed 3 times with 70 μL of PBS per well and imaged on a Cellomics ArrayScan instrument. The cells that were bound to the plate were counted and plotted against the compound concentration to determine the EC50 of the test compounds.

[2] = target: α4β1 integrin (Homo sapiens, UniProt P05556+P13612); test: α4β1 Cell Capture Assay; details: read-out: α4β1 EC50; capture of α4β1 expressing Jurkat cells on VCAM-1 extracellular domain-coated plate; Table 2
Experimental: The potency of inhibitors in preventing α4β1 integrin interaction with VCAM-1 was measured by monitoring the capture of α4β1 expressing cells to a recombinant VCAM-1 extracellular domain-coated plate.
384-well plates (Corning 3702) were coated with VCAM-1 extracellular domain by dispensing 20 μL of VCAM-1 at 0.5 μg/ml per well and incubating overnight at 4° C. The plates were then washed with PBS and blocked with 3% BSA for 2 hours before being washed again.
as §1, with “Jurkat cells” for “RPM18866 cells”, “0.5×10^6 cells/ml.” for “0.5×10^6 cells/mL.”, “blocked, VCAM-1-coated” for “blocked, MadCAM-1-coated”, “10 μl” for “10 μL”, “0.01 mg/ml Hoechst 33342” for “0.01 mg/mL”

COc1cc(C)n(C)c(=O)c1-c1ccc(C[C@H](NC(=O)c2c(C)cc(N3CCOC[C@@H]3C(F)(F)F)cc2F)C(=O)O)cc1C
EC50 [1]: 0.3 nM | EC50 [2]: 8.3 nM
